# Laboratory results taken from ChEMBL document CHEMBL4433236, “Synthesis and structure activity relationships of a series of 4-amino-1H-pyrazoles as covalent inhibitors of CDK14” (Bioorg Med Chem Lett, 2019).
# By UniProt entry, the sequences of proteins in these tests, tags left out. Where a name states a change or a piece, a line headed by the entry shows the natural chain unless it says otherwise.
# UniProt O94921: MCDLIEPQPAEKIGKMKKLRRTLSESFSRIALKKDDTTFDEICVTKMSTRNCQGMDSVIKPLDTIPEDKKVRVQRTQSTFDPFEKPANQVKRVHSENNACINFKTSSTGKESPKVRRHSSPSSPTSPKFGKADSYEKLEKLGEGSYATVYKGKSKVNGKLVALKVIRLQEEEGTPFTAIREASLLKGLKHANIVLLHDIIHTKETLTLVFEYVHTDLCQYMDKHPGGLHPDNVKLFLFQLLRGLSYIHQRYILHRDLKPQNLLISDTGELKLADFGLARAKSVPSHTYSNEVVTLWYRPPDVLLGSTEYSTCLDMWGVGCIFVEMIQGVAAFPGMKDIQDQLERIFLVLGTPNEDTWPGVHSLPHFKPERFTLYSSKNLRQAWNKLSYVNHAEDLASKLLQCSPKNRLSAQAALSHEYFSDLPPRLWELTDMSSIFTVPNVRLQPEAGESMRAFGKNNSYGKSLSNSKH
# Target: Cyclin-dependent kinase 14 (Homo sapiens, UniProt O94921)
# Conditions: 1 uM
structure (smiles),measurement,value
CN(C)C/C=C/C(=O)Nc1cccc(S(=O)(=O)N2CCC(NC(=O)c3n[nH]cc3NC(=O)c3c(Cl)cc(Cl)cc3Cl)CC2)c1,inhibition,> 75%
